scFv variants of Ab-91 (heavy chain) against a SARS-CoV-2 spike peptide

All variants were tested on one target, the spike HR2 peptide PDVDLGDISGINAS (SARS-CoV-2).

Ab-91 is the parent antibody, in scFv form: VL, then the linker GGGGSGGGGSGGGGS, then VH. The light chain is unchanged in all variants.
VL: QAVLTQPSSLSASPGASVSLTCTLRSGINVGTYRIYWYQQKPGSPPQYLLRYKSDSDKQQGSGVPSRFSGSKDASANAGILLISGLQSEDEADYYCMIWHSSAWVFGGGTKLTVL
VH: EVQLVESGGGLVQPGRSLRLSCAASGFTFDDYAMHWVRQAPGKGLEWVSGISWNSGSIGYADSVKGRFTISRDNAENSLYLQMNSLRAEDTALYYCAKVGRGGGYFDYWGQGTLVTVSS

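The parent was found by panning a naive human phage display library on the peptide. The library (AAYL51) carries one to three amino acid substitutions per variant, with no insertions or deletions. AlphaSeq pools MATa yeast showing the antibodies with MATalpha yeast showing the peptide. Pairs that bind mate more often; barcode pairs of the diploids are counted by sequencing. Each replicate has its own calibration line, from reference interactions of the BCL2 family. There are three technical replicates.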

Each variant is given by its three heavy chain CDRs, as the data file delimits them; those of the parent are GFTFDDYAMH, GISWNSGSIGYADSVK, VGRGGGYFDY.
Affinities are written as log10 Kd with Kd in nM; a lower number is a better binder.
Averages over replicates are reported, and they cover detected replicates only.
A pair that was not seen in that replicate is written "nd"; this usually means weak binding, but a binder can also be missed.
Three control strains display no target. For library AAYL51, 21% of the pairings with them gave a signal, with a median of 4.54 and one signal in twenty below 3.26, so weak values seen in few replicates may be background. For each scFv, signals with the empty controls are counted beside the result, with their mean in brackets.

CDR-H1 | CDR-H2 | CDR-H3 | log10 Kd, replicates | mean log10 Kd (nM) | empty controls
GCTFDDYAAH | GISDNSGSIGYADSVK | VGRGGGYFDY | nd / nd / nd | nd | 0/9
GFTFDDYAMH | GISWCSGSIGWADSMK | VGRGGGYFDY | nd / nd / nd | nd | 2/9 (4.13)
GGTFDDYAQH | GISWNNGSIGYADSVK | VGRGGGYFDY | nd / nd / nd | nd | 1/9 (3.77)
GFTFDDYAMH | GIKWNSGSIEYADHVK | VGRGGGYFDY | nd / nd / nd | nd | 0/9
GFTFDSYAMH | GISWNSGSNGYADSVK | VNRGGGYFDY | 2.77 / 2.66 / 2.47 | 2.63 | 4/9 (5.12)
GFTWDDYAMH | GISWNSISIGYADWVK | VGRGGGYFDY | 4.48 / nd / nd | 4.48 | 2/9 (4.06)
GFTFDDYAMH | GISWNQGSIGEADSLK | VGRGGGYFDY | nd / nd / nd | nd | 0/9
GNTFDDYAMH | GISWNSGMIGYADSVK | VGRGGGYLDY | 5.24 / 4.95 / nd | 5.10 | 2/9 (3.47)
GFTFDDYAPH | GVSWNSGSIGYADSVK | VGRGSGYFDY | nd / nd / nd | nd | 0/9
GFTFDDYAEH | GISWNRGSIGYADSVK | VGRGGGYFHY | 4.86 / nd / nd | 4.86 | 6/9 (4.72)
GFTGDDYAMH | GISWNSGSIQYADSVK | VGAGGGYFDY | 4.15 / 3.95 / nd | 4.05 | 1/9 (4.84)
GFTFDDYIIH | GISWNSGSIGYADSVK | VGYGGGYFDY | nd / nd / 4.56 | 4.56 | 2/9 (4.61)
GFTFDDYAMH | GISWNSLSIGRFDSVK | VGRGGGYFDY | nd / nd / nd | nd | 1/9 (4.62)
GFTFHDVAMH | GISWNSGSIGYADSVK | VGRGGGYFDY | 0.73 / 0.90 / 0.26 | 0.63 | 2/9 (3.76)
GFTFDKYAMH | GISWNSGSIGYACSVK | VGRGGGYFDY | 3.84 / nd / nd | 3.84 | 4/9 (4.28)
GFTFDDYAMH | GISWKSGSIGYADSVK | KGRNGGYFDY | nd / nd / nd | nd | 0/9
GFTFDDSAMH | GIMWNSGSIGYADSVK | VGRGGGYADY | nd / nd / nd | nd | 0/9
GFTFDDYAMH | GISWNSGSIGYADSVK | VGSGGGYYDY | nd / nd / nd | nd | 3/9 (4.66)
GFTFDDYANH | GIYWNSGSHGYADSVK | VGRGGGYFDY | nd / nd / nd | nd | 2/9 (4.41)
GFTFDDYAMH | GISWSSGSIGYADSVK | VERGGGFFDY | nd / nd / nd | nd | 0/9
GFTFDDYAMP | GISWNSGSIGYADSVK | VGRGVGYFRY | nd / nd / nd | nd | 0/9
GFTFDDYAVH | GISWNSMSIGYADSVK | VGRGGGYFDY | 3.49 / 3.05 / 3.51 | 3.35 | 4/9 (4.52)
GFTFDDYDMH | GISWNSGSIGYADSVY | VMRGGGYFDY | nd / 4.44 / nd | 4.44 | 0/9
GFRFDDYAMH | GISKNSGSNGYADSVK | VGRGGGYFDY | nd / nd / 1.89 | 1.89 | 0/9
GFTFDDQAMH | GMSWNSGSIEYADSVK | VGRGGGYFDY | nd / nd / nd | nd | 1/9 (4.16)
DFTFDDYAMH | GISWNSGSIGYAISVK | YGRGGGYFDY | nd / nd / nd | nd | 0/9
GFTFDCQAMH | GKSWNSGSIGYADSVK | VGRGGGYFDY | 5.41 / 3.84 / nd | 4.62 | 1/9 (6.05)
GFTFDEYARH | GISWNSGSIGYADSVK | VGRGGGEFDY | nd / nd / nd | nd | 0/9
GFAFDDYAMH | YISWNSGSIGYADSVK | VGRGGGQFDY | nd / nd / 3.91 | 3.91 | 3/9 (4.44)
GFTFIDYAMH | GISWNSGSIGYAKSVK | VGRGGGYFDY | nd / nd / nd | nd | 2/9 (4.61)
GFTFDNYAMH | GISINSGSIGYADSVK | VGRGGGIFDY | nd / nd / nd | nd | 2/9 (4.00)
MFTFDDVAMH | GISWNSGSIGYADSVK | VGRGGGYFDY | nd / nd / nd | nd | 2/9 (3.57)
GFTFDDYACH | GISWNSGSIGYADSVK | QSRGGGYFDY | nd / nd / 2.74 | 2.74 | 1/9 (2.68)
GFMFDDYAMH | GIFWNSGSIGYADKVK | VGRGGGYFDY | nd / nd / nd | nd | 1/9 (3.35)
GLTFMDYAMH | GISWNSGSIGYADSVK | VGRGGGYYDY | nd / nd / nd | nd | 2/9 (4.00)
GFTFDDYAMH | AIIWSSGSIGYADSVK | VGRGGGYFDY | 3.04 / nd / nd | 3.04 | 0/9
GFTFDDYAMH | GTSWNSGSIGYCDSVK | VGRGGGYFDY | nd / nd / nd | nd | 1/9 (3.34)
GFTRDDYAMH | GTSWNSGSIGYADAVK | VGRGGGYFDY | nd / nd / nd | nd | 1/9 (3.20)
GFTFDDYAMH | GPSWNSGSIGCADSVK | VGRGGKYFDY | 4.70 / nd / nd | 4.70 | 4/9 (4.92)
GFTFDQYAMH | GQSWNSGSIGYADSVK | VGRGGGYFDI | 3.95 / nd / 4.84 | 4.39 | 4/9 (4.57)
GFTFDDMAMH | GISWNSGSIGYADSVK | VGTGGGQFDY | nd / nd / nd | nd | 0/9
GFTFDDYAMH | PISRNSGSIGYADSVK | VGRGGMYFDY | nd / nd / nd | nd | 0/9
GFTFDDYAMH | GISWNSWSIGYADSVQ | VGRGGGRFDY | nd / nd / nd | nd | 0/9
GFTFDDYAMH | MISWNSGSIGYAQSVK | VGRGGGLFDY | nd / nd / nd | nd | 1/9 (4.20)

7 of these entries, quoted again:

CDR-H1	CDR-H2	CDR-H3	log10 Kd, replicates	mean log10 Kd (nM)	empty controls
DFTFDDYAMH	GISWNSGSIGYAISVK	YGRGGGYFDY	nd / nd / nd	nd	0/9
GFRFDDYAMH	GISKNSGSNGYADSVK	VGRGGGYFDY	nd / nd / 1.89	1.89	0/9
GFTFDDYAEH	GISWNRGSIGYADSVK	VGRGGGYFHY	4.86 / nd / nd	4.86	6/9 (4.72)
GFTFDDYDMH	GISWNSGSIGYADSVY	VMRGGGYFDY	nd / 4.44 / nd	4.44	0/9
GCTFDDYAAH	GISDNSGSIGYADSVK	VGRGGGYFDY	nd / nd / nd	nd	0/9
GFTFDNYAMH	GISINSGSIGYADSVK	VGRGGGIFDY	nd / nd / nd	nd	2/9 (4.00)
GFTFDDYAMH	GISWNSLSIGRFDSVK	VGRGGGYFDY	nd / nd / nd	nd	1/9 (4.62)

Parent in this assay: reference entry 1.86, copy in this library 0.88.

Source: Engelhart et al. 2022 (doi:10.1038/s41597-022-01779-4), MIT Lincoln Laboratory and A-Alpha Bio; data file from the FLAb repository.